# Test results from US20040097598A1, “Method of treating neurological disorders using acetone derivatives” (priority 2001, published 2004).
# Test system: MES seizure
# Experiment: maximal electroshock (MES) seizure test
# Type: in vivo
# Settings: ratio TD50 (rotorod)/ED50 (MES), mice
# Experimental: Male CF-1 mice, weighing 28-30 g, were used as subjects (Charles River Canada, La Prairie, Quebec, Canada). Three to five subjects per drug dose were used to prescreen each compound for anticonvulsant activity. Prescreening involved injecting subjects with the drug at doses of 3, 6 mmol/kg and assessing activity and toxicity 30 min later. Promising compounds progressed to dose-response studies, which employed at least 50 subjects, 10 subjects per dose.
# Compounds were dissolved in oil and injected intraperitoneally.
# Thirty minutes after drug injection, the MES seizure test was administered. We used the procedure of Krall et al. (1978). In brief, a seizure was induced using the electrical current applied via corneal electrodes. The current was set to 50 mA with a 60 Hz sine wave pulse configuration and train duration of 0.2 sec. Seizure protection was defined in this model as a failure to extend the hind limbs to an angle greater than 90 degrees during the tonic period of the convulsion.
# Data analysis was performed using GraphPad Prizm software package version 3.02 for Windows (GraphPad Software Inc, San Diego, Calif., USA). […] Therapeutic index (TI) was calculated as a ratio of TD50/ED50.
substance,measurement,value
Acetone,TI (therapeutic index),2.2
